Activity data for two compounds are collected here from ChEMBL document CHEMBL5500402, “Potent, Selective Agonists for the Cannabinoid-like Orphan G Protein-Coupled Receptor GPR18: A Promising Drug Target for Cancer and Immunity” (J Med Chem, 2024).

Amino acid sequences for entries named in this document (tags omitted).
UniProt P34972, whole entry: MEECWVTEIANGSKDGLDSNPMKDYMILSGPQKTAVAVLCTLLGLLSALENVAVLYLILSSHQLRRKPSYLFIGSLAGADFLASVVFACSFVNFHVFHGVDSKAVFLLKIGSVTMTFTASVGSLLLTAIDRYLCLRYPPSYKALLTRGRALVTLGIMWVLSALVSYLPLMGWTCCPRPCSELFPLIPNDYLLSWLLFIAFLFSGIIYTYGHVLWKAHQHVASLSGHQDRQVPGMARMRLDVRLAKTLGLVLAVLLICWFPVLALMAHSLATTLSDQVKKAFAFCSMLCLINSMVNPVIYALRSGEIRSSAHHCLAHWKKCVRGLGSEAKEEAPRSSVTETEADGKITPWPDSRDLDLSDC
UniProt P21554, whole entry: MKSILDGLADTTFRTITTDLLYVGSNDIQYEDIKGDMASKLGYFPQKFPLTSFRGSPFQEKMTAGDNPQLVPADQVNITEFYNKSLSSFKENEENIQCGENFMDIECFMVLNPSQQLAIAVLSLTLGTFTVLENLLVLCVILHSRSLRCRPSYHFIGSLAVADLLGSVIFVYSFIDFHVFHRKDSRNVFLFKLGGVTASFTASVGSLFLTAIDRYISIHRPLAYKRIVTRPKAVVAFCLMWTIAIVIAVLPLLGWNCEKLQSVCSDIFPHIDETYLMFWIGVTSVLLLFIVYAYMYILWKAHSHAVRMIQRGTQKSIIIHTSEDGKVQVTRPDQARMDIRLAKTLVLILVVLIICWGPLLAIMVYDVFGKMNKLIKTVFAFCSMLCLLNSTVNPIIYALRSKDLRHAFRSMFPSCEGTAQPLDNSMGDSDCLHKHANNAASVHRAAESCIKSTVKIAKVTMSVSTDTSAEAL
UniProt P32249, whole entry: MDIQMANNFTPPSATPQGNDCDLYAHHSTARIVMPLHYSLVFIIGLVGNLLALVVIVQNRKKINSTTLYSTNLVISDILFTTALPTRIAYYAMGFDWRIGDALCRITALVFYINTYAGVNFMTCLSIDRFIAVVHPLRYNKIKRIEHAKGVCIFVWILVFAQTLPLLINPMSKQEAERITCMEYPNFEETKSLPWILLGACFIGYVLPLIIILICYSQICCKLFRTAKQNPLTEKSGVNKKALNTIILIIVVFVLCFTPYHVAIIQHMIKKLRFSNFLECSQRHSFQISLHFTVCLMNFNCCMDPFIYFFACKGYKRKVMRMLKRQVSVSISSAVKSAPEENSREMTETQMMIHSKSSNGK

The target in assay [1] is Cannabinoid receptor 2 (Homo sapiens, UniProt P34972). Briefly: Displacement of [3H]-CP55940 from human CB2 receptor expressed in CHO cells assessed as maximal displacement by radioligand competition binding assay. The format is cell-based.
Assay [2] deals with Cannabinoid receptor 1 (Homo sapiens, UniProt P21554). Briefly: Displacement of [3H]-CP55940 from human CB1 receptor expressed in CHO cells assessed as maximal displacement by radioligand competition binding assay relative to control. Format: cell-based. Background: Displacement assays read how much labelled ligand stays bound in the presence of the test substance.
Assay [3] deals with T1, N-arachidonyl glycine receptor (Homo sapiens) (UniProt Q14330).
T1 sequence (whole entry): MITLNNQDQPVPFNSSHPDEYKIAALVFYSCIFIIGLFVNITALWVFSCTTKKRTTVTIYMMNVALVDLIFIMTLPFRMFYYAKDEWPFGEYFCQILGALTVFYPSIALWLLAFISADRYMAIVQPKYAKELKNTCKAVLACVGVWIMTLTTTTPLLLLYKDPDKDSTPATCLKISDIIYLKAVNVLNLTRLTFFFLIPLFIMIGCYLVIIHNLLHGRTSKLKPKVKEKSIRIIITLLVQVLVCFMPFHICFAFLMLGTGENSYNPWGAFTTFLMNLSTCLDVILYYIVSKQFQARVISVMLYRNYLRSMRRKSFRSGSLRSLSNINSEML
As to the kind of experiment: Agonist activity at human GPR18-eYFP and Renilla luc expressed in CHO cells assessed as beta-arrestin2 recruitment by BRET/beta-arrestin2 enzyme complementation assay. The format is functional, cell-based. The following applies: filed as agonist. A general note: Arrestin recruitment assays detect the binding of arrestin to an activated receptor.

The target of assay [4] is T2, G-protein coupled receptor 183 (Homo sapiens, UniProt P32249). As to the kind of experiment: Agonist activity at human GPR183 expressed in PathHunter CHO-K1 cells assessed as activation by measuring beta-arrestin2 recruitment at 10 uM relative to control. The format is functional, cell-based.
The target in assay [5] is T2, G-protein coupled receptor 183. Briefly: Agonist activity at human GPR183 expressed in PathHunter CHO-K1 cells assessed as activation by measuring beta-arrestin2 recruitment at 30 uM relative to control. Format: functional, cell-based.

Consider `Cc1ccc(Cn2c(NCCc3c[nH]c4ccccc34)nc3c2c(=O)n(C)c(=O)n3C)cc1`, for which the Activity is 87% in assay [1] and 55% in assay [2].

In the case of `Cn1c(=O)c2c(nc(NCCc3c[nH]c4ccccc34)n2Cc2ccc(Cl)cc2)n(C)c1=O`, the Activity result in assay [3] is “Dose-Dependent Effect”; in assay [4], 1%; in assay [5], 3%.
